Test results taken from ChEMBL document CHEMBL1142709, “Discovery and evaluation of 2-anilino-5-aryloxazoles as a novel class of VEGFR2 kinase inhibitors” (J Med Chem, 2005).

Chains of the proteins cited; added tags and fusions are not shown. Lines headed by an entry give the natural chain unless they say otherwise; changes in a name come on top.
UniProt P35968, whole entry: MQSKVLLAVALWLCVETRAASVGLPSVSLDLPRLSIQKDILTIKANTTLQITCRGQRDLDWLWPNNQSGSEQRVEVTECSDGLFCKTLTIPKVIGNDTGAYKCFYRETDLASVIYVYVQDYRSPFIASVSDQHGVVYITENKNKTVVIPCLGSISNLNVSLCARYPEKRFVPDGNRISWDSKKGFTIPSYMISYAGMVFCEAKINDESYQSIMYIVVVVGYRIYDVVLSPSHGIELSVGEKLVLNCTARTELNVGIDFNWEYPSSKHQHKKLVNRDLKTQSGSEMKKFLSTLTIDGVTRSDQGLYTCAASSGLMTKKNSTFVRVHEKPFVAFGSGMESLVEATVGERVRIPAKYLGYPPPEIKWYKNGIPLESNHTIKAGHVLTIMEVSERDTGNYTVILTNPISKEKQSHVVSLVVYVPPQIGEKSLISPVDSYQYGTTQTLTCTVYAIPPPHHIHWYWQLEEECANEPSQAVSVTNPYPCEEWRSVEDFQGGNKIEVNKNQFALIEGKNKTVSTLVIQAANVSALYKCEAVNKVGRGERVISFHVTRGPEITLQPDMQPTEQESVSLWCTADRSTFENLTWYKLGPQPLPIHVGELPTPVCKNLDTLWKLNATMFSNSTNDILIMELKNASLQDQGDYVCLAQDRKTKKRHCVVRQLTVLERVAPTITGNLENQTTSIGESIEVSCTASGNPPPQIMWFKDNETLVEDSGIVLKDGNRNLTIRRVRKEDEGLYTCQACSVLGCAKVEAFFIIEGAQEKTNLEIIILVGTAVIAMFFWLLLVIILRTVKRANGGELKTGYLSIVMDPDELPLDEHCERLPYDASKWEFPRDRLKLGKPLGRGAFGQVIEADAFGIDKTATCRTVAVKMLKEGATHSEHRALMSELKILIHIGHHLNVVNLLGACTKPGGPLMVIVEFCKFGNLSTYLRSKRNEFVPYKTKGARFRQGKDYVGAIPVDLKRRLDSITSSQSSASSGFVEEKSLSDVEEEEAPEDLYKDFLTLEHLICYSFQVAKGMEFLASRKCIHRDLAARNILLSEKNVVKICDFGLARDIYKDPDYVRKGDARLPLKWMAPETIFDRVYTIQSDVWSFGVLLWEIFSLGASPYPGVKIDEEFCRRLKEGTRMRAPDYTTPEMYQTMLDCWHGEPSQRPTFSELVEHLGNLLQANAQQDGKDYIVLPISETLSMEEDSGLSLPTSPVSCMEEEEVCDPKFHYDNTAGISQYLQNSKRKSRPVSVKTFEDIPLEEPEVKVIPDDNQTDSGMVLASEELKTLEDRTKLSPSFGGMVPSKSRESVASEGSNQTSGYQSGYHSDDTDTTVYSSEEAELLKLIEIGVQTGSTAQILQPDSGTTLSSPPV
UniProt P49840: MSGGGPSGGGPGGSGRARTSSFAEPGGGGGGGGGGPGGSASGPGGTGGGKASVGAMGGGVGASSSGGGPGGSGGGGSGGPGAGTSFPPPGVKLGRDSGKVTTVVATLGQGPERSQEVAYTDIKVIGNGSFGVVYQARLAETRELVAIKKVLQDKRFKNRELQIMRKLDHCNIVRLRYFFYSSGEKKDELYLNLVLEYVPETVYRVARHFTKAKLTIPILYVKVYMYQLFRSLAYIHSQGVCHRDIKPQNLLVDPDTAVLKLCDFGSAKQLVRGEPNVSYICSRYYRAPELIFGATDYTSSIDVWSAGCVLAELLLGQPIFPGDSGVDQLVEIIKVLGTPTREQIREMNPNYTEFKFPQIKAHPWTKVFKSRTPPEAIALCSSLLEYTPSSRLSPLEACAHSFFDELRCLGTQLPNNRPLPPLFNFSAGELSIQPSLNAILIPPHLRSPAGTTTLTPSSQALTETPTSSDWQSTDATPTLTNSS
UniProt P09619, whole entry: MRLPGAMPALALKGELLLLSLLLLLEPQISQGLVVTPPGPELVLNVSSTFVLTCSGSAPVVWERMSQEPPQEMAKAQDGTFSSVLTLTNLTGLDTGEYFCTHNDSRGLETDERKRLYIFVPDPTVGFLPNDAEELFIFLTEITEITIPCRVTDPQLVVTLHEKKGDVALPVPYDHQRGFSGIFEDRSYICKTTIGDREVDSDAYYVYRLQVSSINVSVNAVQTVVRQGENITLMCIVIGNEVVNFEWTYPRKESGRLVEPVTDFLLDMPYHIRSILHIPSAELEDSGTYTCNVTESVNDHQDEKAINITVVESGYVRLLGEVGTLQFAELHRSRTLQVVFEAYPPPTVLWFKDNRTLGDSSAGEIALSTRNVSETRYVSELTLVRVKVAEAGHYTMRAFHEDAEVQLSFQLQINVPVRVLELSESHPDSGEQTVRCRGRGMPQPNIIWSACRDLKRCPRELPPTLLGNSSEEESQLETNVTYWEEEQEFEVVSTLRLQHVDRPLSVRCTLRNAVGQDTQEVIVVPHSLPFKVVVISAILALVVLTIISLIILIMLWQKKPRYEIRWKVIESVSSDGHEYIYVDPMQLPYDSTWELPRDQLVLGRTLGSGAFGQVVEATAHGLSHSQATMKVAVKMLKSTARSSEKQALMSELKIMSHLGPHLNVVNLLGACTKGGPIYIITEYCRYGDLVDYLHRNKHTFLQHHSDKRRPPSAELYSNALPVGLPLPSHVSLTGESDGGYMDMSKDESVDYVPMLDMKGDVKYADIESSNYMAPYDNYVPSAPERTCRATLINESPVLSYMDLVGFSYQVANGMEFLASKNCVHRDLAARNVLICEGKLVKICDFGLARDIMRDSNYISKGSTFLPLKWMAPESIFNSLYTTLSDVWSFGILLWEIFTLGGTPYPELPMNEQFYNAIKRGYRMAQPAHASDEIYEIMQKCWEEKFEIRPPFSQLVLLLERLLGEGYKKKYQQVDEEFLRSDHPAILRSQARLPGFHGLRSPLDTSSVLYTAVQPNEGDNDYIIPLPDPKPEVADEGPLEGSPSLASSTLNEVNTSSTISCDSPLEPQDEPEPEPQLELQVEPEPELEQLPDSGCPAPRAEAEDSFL
UniProt O15264: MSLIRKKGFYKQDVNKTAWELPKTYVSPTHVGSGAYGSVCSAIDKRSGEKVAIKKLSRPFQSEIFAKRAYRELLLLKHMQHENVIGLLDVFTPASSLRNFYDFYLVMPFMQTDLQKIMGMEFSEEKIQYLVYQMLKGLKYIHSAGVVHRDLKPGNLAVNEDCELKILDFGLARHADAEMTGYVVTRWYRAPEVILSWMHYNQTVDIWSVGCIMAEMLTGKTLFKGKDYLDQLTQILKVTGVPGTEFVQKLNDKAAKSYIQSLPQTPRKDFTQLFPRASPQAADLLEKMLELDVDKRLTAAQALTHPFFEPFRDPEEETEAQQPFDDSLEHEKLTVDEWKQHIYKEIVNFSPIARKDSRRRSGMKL
UniProt Q15759, whole entry, looked up: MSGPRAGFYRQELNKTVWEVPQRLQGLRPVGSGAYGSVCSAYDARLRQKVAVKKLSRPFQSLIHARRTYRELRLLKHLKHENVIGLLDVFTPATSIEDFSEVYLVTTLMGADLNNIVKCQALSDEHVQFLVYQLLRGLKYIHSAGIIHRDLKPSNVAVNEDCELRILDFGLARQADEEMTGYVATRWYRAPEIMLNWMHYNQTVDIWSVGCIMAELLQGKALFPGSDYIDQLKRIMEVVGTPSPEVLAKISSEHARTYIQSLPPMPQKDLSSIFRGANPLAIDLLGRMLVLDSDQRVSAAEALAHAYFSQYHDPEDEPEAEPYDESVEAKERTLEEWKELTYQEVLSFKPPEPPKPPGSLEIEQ
UniProt Q16539, whole entry, looked up: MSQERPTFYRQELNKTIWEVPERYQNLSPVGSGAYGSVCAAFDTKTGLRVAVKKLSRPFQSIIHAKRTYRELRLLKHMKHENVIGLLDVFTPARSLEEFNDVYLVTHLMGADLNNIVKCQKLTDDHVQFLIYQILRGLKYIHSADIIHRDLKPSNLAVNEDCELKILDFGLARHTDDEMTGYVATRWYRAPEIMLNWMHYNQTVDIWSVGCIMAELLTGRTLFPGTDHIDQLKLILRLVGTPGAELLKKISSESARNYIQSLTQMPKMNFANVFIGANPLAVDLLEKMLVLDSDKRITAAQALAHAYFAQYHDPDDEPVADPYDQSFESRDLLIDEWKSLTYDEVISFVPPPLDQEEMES
UniProt P53778: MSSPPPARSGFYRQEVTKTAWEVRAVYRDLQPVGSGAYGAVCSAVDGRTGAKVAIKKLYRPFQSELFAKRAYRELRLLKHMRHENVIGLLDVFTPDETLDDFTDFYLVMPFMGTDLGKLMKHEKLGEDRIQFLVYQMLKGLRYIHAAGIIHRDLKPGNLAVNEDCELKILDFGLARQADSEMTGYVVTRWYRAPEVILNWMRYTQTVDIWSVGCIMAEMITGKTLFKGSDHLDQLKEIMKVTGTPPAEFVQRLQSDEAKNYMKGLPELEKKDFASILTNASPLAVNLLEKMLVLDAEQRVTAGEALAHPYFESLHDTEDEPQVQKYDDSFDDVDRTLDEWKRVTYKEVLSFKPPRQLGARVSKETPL
UniProt P07333, whole entry: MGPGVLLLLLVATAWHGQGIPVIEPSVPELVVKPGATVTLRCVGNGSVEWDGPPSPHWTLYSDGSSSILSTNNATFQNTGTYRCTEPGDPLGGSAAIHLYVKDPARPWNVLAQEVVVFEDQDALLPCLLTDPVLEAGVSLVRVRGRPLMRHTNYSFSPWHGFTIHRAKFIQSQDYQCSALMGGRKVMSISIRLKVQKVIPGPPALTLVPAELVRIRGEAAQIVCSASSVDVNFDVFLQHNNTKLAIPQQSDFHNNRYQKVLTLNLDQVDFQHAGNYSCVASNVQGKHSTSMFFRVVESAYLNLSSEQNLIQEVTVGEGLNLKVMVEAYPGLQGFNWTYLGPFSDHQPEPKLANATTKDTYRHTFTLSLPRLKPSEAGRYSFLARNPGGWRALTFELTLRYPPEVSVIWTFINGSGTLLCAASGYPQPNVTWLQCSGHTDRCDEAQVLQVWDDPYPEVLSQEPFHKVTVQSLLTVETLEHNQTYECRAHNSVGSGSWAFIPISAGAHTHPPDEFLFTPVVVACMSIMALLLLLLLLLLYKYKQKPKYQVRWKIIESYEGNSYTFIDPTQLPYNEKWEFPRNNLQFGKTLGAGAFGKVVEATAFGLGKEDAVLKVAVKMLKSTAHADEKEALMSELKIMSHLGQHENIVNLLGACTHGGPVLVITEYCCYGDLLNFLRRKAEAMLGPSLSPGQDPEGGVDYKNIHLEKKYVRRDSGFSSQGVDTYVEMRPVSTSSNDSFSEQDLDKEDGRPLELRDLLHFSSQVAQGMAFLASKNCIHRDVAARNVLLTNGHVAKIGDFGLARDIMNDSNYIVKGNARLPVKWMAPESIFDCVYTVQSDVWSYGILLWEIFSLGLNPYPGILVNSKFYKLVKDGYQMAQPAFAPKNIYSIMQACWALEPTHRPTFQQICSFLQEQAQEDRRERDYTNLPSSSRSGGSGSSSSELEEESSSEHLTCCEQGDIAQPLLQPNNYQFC
UniProt Q02763: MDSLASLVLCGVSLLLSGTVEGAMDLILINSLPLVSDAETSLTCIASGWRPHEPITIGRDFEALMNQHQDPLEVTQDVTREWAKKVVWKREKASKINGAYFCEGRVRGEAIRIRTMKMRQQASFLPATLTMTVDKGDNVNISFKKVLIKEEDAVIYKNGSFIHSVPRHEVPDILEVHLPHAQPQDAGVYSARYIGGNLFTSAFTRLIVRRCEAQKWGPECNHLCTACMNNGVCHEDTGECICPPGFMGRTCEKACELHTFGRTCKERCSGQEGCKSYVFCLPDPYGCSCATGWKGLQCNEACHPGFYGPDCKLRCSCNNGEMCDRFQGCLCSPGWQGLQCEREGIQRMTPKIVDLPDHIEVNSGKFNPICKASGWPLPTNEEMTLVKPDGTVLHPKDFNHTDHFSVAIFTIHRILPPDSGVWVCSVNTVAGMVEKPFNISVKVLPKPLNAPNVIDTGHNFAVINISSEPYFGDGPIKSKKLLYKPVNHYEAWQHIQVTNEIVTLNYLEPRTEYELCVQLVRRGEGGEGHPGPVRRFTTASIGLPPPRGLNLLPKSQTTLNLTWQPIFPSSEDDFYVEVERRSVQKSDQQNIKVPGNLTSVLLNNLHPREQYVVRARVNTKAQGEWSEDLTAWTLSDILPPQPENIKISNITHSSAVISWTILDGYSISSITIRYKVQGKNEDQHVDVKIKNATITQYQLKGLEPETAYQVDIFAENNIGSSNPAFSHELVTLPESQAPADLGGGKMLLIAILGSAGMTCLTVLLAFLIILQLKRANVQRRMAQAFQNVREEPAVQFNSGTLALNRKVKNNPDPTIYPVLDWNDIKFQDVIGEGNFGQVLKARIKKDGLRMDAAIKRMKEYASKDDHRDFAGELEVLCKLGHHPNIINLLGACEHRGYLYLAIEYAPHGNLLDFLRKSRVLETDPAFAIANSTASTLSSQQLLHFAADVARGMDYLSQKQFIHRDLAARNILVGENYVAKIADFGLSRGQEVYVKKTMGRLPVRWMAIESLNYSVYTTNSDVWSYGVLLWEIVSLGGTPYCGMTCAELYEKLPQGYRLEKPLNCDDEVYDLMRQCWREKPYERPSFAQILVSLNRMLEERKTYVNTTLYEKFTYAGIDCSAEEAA

How the values were obtained:
[1] = molecular target: T1, Vascular endothelial growth factor receptor 2 (Homo sapiens, UniProt P35968); test: Inhibition of human Vascular endothelial growth factor receptor 2
[2] = molecular target: Glycogen synthase kinase-3 (Homo sapiens) (UniProt P49840+P49841); test: Selectivity for Glycogen synthase kinase-3 by scintillation proximity assay; format: protein assay
[3] = molecular target: Platelet-derived growth factor receptor beta (Homo sapiens) (UniProt P09619); test: Selectivity for Platelet-derived growth factor receptor beta by homologous time-resolved fluorescence assay
[4] = molecular target: Vascular endothelial growth factor receptor 1 (Homo sapiens) (UniProt P17948); test: Selectivity for Vascular endothelial growth factor receptor 1 by homologous time-resolved fluorescence assay
[5] = molecular target: T1, Vascular endothelial growth factor receptor 2; test: Selectivity for human Vascular endothelial growth factor receptor 2 by homologous time-resolved fluorescence assay
[6] = molecular target: T2, Tyrosine-protein kinase ITK/TSK (Homo sapiens) (UniProt Q08881); test: Selectivity for IL-2-inducible T-cell kinase by fluorescence polarization binding assay
T2 sequence (whole entry): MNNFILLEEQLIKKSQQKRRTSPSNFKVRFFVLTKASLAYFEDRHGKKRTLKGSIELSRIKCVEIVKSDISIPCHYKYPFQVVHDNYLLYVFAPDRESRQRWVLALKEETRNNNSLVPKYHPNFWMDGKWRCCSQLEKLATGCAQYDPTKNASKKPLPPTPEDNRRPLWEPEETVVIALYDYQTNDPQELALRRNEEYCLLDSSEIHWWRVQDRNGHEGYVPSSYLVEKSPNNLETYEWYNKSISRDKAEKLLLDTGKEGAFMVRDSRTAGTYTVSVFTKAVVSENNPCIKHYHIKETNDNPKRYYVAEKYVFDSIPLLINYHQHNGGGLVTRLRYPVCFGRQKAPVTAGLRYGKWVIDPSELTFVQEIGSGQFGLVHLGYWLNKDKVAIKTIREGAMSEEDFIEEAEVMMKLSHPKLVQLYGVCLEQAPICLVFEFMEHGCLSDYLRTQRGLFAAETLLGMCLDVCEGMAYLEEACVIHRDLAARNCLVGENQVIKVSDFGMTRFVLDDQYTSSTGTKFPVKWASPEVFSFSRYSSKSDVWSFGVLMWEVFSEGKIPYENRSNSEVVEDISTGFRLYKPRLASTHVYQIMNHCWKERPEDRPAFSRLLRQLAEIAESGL

[7] = molecular target: Cyclin-dependent kinase 4 (Homo sapiens) (UniProt P11802); test: Selectivity for Cyclin-dependent kinase 4 by plate capture and filtration binding assay
[8] = molecular target: Proto-oncogene tyrosine-protein kinase Src (Homo sapiens) (UniProt P12931); test: Selectivity for Src protein tyrosine kinase by homologous time-resolved fluorescence assay
[9] = molecular target: MAP kinase p38 (Homo sapiens) (UniProt O15264+Q15759+Q16539+P53778); test: Selectivity for Mitogen-activated protein kinase p38 by fluorescence polarization binding assay
[10] = molecular target: Macrophage colony-stimulating factor 1 receptor (Homo sapiens) (UniProt P07333); test: Selectivity for colony stimulating factor 1 receptor by plate capture and filtration binding assay
[11] = molecular target: Angiopoietin-1 receptor (Homo sapiens) (UniProt Q02763); test: Selectivity for Tyrosine protein kinase receptor TIE-2 by homologous time-resolved fluorescence assay

| SMILES | IC50 [1] | also measured |
| --- | --- | --- |
| CCS(=O)(=O)c1ccc(OC)c(Nc2ncc(-c3cccc(-c4ccsc4)c3)o2)c1 | 15 nM |  |
| CCS(=O)(=O)c1ccc(OC)c(Nc2ncc(-c3cccc(-c4cccs4)c3)o2)c1 | 16 nM |  |
| CCS(=O)(=O)c1ccc(OC)c(Nc2ncc(-c3cccc(-c4ccccn4)c3)o2)c1 | 22 nM |  |
| CCS(=O)(=O)c1ccc(OC)c(Nc2ncc(-c3ccc(F)cc3)o2)c1 | 79 nM |  |
| CCS(=O)(=O)c1ccc(OC)c(Nc2ncc(-c3cccc(-c4cncn4C)c3)o2)c1 | 25 nM |  |
| CCS(=O)(=O)c1ccc(OC)c(Nc2ncc(-c3cccc(-c4ccncc4)c3)o2)c1 | 78 nM |  |
| N#Cc1ccccc1Nc1ncc(-c2ccccc2)o1 | 870 nM |  |
| CCS(=O)(=O)c1ccc(OC)c(Nc2ncc(-c3ccccc3Cl)o2)c1 [GW622055X] | 360 nM |  |
| CCS(=O)(=O)c1ccc(OC)c(Nc2ncc(-c3ccc(C(N)=O)cc3)o2)c1 | 18 nM |  |
| CCS(=O)(=O)c1ccc(OC)c(Nc2ncc(-c3cccc(C(C)=O)c3)o2)c1 [GW621431X] | 91 nM |  |
| CCc1cccc(-c2cnc(Nc3cc(S(=O)(=O)CC)ccc3OC)o2)c1 | 29 nM |  |
| CCS(=O)(=O)c1cccc(Nc2ncc(-c3ccccc3)o2)c1 | 720 nM |  |
| COc1ccccc1Nc1ncc(-c2ccccc2)o1.Cl [GW577921A] | 380 nM |  |
| CCS(=O)(=O)c1ccc(OC)c(Nc2ncc(-c3cccc(-c4ccccc4F)c3)o2)c1 [GW678313X] | 89 nM |  |
| CCS(=O)(=O)c1ccc(OC)c(Nc2ncc(-c3ccc(C#N)cc3)o2)c1 | 51 nM |  |
| CCS(=O)(=O)c1ccc(OC)c(Nc2ncc(-c3cccc(C#N)c3)o2)c1 | 141 nM |  |
| CCS(=O)(=O)c1ccc(OC)c(Nc2ncc(-c3cccc(Cl)c3)o2)c1 | 22 nM |  |
| CCS(=O)(=O)c1ccc(OC)c(Nc2ncc(-c3ccc(OC)cc3)o2)c1 | 87 nM |  |
| c1ccc(Oc2cccc(Nc3ncc(-c4ccccc4)o3)c2)cc1 | 1410 nM |  |
| CCS(=O)(=O)c1ccc(OC)c(Nc2ncc(-c3ccccc3)o2)c1 | 50 nM |  |
| CCS(=O)(=O)c1ccc(OC)c(Nc2ncc(-c3cccc(-c4ccccc4)c3)o2)c1 | 79 nM |  |
| c1ccc(Oc2ccc(Nc3ncc(-c4ccccc4)o3)cc2)cc1 | > 10000 nM |  |
| NS(=O)(=O)c1ccc(Nc2ncc(-c3ccccc3)o2)cc1 [GW572399X] | 500 nM |  |
| CCS(=O)(=O)c1ccc(OC)c(Nc2ncc(-c3cccc(-c4cccnc4)c3)o2)c1 | 76 nM |  |
| CCS(=O)(=O)c1ccc(OC)c(Nc2ncc(-c3cccc(F)c3)o2)c1 [GW621970X] | 93 nM |  |
| OCc1cccc(Nc2ncc(-c3ccccc3)o2)c1 | 500 nM |  |
| CCS(=O)(=O)c1ccc(OC)c(Nc2ncc(-c3cccc(OC)c3)o2)c1 [GW580509X] | 360 nM |  |
| CCS(=O)(=O)c1ccc(OC)c(Nc2ncc(-c3cccc(-c4ccccc4Cl)c3)o2)c1 | 39 nM | Selectivity [2]: > 10 µM; Selectivity [3]: 0.93 µM; Selectivity [4]: 0.11 µM; Selectivity [5]: 0.39 µM; Selectivity [6]: 0.12 µM; Selectivity [7]: > 10 µM; Selectivity [8]: 0.29 µM; Selectivity [9]: > 10 µM; Selectivity [10]: 1.9 µM; Selectivity [11]: 1.8 µM |
| CCS(=O)(=O)c1ccc(OC)c(Nc2ncc(-c3ccc(Cl)cc3)o2)c1 | 81 nM |  |
